Results on 3 substances are retold here after patent US7432303B2, “Chalcone and its analogs as agents for the inhibition of angiogenesis and related disease states” (James and Emory University, priority 1999, dated 2008).

The subject of this assay is SVR cells. The assay can be described thus: SVR cell assay: cell numbers counted at 48 hours, percent inhibition versus control. The class given is cell-based, murine. Conditions: for Percent Inhibition at a Specified Density (μg/ml): 1: 1 μg/ml, 10,000 SVR cells in 24 well dish; for Percent Inhibition at a Specified Density (μg/ml): 3: 3 μg/ml, 10,000 SVR cells in 24 well dish; for Percent Inhibition at a Specified Density (μg/ml): 6: 6 μg/ml, 10,000 SVR cells in 24 well dish.

With 1,3-Bis(4-biphenyl)propenone, the “Percent Inhibition at a Specified Density (μg/ml): 1” value came to 19.2%, the “Percent Inhibition at a Specified Density (μg/ml): 3” value was 0.0% and the “Percent Inhibition at a Specified Density (μg/ml): 6” value turned out to be 0.0%.
Consider 1-(4-Biphenyl)-3-phenylpropenone, for which the “Percent Inhibition at a Specified Density (μg/ml): 1” value turned out to be 10.4%, the “Percent Inhibition at a Specified Density (μg/ml): 3” value was 34.7% and the “Percent Inhibition at a Specified Density (μg/ml): 6” value was 0.0%.
In the same order, the values of 3-(4-Biphenyl)-1-phenylpropenone are 24.9%, 12.9% and 41.4%.
